Measured values as given in patent US10927110B2, “Cyano-subtituted heterocycles with activity as inhibitors of USP30” (MISSION THERAPEUTICS LIMITED, priority 2016, dated 2021).

The chains behind the UniProt entries cited, without tags or fusion partners. Residues count along the entry.
UniProt Q70CQ3, 57-517 limits assumed: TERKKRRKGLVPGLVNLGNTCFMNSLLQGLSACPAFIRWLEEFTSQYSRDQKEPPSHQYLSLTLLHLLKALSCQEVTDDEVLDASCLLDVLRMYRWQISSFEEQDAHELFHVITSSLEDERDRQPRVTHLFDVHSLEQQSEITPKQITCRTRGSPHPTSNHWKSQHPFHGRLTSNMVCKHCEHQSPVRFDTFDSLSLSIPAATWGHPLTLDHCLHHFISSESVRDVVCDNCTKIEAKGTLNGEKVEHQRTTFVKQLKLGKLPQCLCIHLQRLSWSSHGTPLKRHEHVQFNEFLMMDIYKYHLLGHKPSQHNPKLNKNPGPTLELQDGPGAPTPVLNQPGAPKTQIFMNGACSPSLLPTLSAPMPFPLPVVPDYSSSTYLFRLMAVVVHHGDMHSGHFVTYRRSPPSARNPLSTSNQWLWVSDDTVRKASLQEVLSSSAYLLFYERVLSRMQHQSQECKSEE

Target: USP30 (Homo sapiens (Human), UniProt Q70CQ3)
Experiment: USP30 Biochemical IC50 Assay
Conditions: read-out: IC50 range; fluorescence polarisation, TAMRA labelled peptide linked to ubiquitin; 30 min pre-incubation, read after 2 h at room temperature
Description: USP30 Biochemical IC50 Assay
Dilution plates were prepared at 21 times the final concentration (2100 μM for a final concentration of 100 μM) in 50% DMSO in a 96-well polypropylene V-bottom plate (Greiner #651201). A typical 8-point dilution series would be 100, 30, 10, 3, 1, 0.3, 0.1, […]. Reactions were performed in duplicate in black 384 well plates (small volume, Greiner 784076) in a final reaction volume of 21 μl. Either 1 μl of 50% DMSO or diluted compound was added to the plate. USP30 was diluted in reaction buffer (40 mM Tris, pH 7.5, 0.005% Tween 20, 0.5 mg/ml BSA, 5 mM beta-mercaptoethanol) to the equivalent of 0.05 μl/well and 10 μl of diluted USP30 was added to the compound. Enzyme and compound were incubated for 30 min at room temp. Reactions were initiated by the addition of 50 nM of TAMRA labelled peptide linked to ubiquitin via an iso-peptide bond as fluorescence polarisation substrate. Reactions were read immediately after addition of substrate and following a 2 h incubation at room temperature. Readings were performed on a Pherastar Plus (BMG Labtech). λ Excitation 540 nm; λ Emission 590 nm.

`N#Cc1cccc(-c2cnc3[nH]c(C4(F)CCCN(C#N)C4)nc3c2)c1` (stereo not shown) was tested, and the IC50 was 100 to 1000 nM.
